Consider one compound from ChEMBL document CHEMBL4616624, “STAT3 inhibitory activity of naphthoquinones isolated from Tabebuia avellanedae” (Bioorg Med Chem, 2020).

Chains of the proteins cited; added tags and fusions are not shown.
UniProt P40763, whole entry: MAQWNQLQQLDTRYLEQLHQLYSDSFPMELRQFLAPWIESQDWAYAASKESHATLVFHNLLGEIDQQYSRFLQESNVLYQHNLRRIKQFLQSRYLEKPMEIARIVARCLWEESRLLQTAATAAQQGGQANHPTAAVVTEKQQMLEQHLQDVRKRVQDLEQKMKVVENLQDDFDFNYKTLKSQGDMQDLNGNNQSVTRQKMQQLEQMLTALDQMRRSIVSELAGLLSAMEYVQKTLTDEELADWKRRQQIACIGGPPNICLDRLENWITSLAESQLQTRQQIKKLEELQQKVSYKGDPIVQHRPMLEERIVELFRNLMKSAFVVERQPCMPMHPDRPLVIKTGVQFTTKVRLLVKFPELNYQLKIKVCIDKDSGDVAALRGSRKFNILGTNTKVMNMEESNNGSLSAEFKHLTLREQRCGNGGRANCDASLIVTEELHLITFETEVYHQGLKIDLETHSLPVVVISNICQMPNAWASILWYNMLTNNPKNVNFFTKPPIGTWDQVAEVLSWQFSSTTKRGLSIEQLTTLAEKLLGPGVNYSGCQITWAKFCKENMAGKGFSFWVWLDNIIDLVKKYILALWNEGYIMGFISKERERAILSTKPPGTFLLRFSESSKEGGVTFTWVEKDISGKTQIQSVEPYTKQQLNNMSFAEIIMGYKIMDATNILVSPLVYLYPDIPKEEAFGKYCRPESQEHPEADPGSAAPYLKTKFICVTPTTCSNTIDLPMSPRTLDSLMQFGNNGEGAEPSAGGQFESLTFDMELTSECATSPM

What all share (type): cell-based
The target of test [1] is T1, Signal transducer and activator of transcription 3 (Homo sapiens, UniProt P40763). Nature of the test: Inhibition of IL-6 induced STAT3 phosphorylation at Tyr705 residue in human MCF7 cells at 1 uM preincubated for 1 hr followed by IL-6 stimulation and measured after 1 hr by Western blot analysis relative to control. In general terms: In western blotting, separated proteins are transferred to a membrane and probed.

The target in test [2] is T1, Signal transducer and activator of transcription 3. Nature of the test: Inhibition of IL-6 induced STAT3 phosphorylation at Tyr705 residue in human MCF7 cells assessed as phosphorylation intensity level at 0.5 uM preincubated for 1 hr followed by IL-6 stimulation and measured after 1 hr by Western blot analysis. Details: scale not given: the % may be the effect or the level left.

Test [3] has the same target. The test is described as follows: Inhibition of IL-6 induced STAT3 phosphorylation at Tyr705 residue in human MCF7 cells assessed as phosphorylation intensity level at 1 uM preincubated for 1 hr followed by IL-6 stimulation and measured after 1 hr by Western blot analysis. More on the design: scale not given: the % may be the effect or the level left.
Test [4] shares this target. Nature of the test: Inhibition of IL-6 induced STAT3 phosphorylation at Tyr705 residue in human MCF7 cells assessed as phosphorylation intensity level at 2 uM preincubated for 1 hr followed by IL-6 stimulation and measured after 1 hr by Western blot analysis. Details: scale not given: the % may be the effect or the level left.
Test [5] has the same target. The test is described as follows: Inhibition of IL-6 induced STAT3 phosphorylation at Tyr705 residue in human MCF7 cells assessed as phosphorylation intensity level at 4 uM preincubated for 1 hr followed by IL-6 stimulation and measured after 1 hr by Western blot analysis. Details: scale not given: the % may be the effect or the level left.

Turning to `CC(=O)c1cc2c(o1)C(=O)c1ccccc1C2=O` [NAPABUCASIN], the inhibition in test [1] came to 100%. Further, the Activity in test [2] stood at 52%; in test [3], 13%; in test [4], 9%; in test [5], 5%.

For orientation: inhibition means how much of the control response was suppressed.
